# Test results from patent US11026914B2 (DelMar Pharmaceuticals, Inc., priority 2013, dated 2021).
# Test system: recurrent glioblastoma multiforme (GBM)
# Assay: Phase I/II dose-escalation study: tumor response (RANO) in recurrent GBM patients
# Conditions: 25 patients across 8 dose cohorts
structure (smiles),measurement,value
O[C@H]([C@H](O)[C@@H]1CO1)[C@H]1CO1 [dianhydrogalactitol],maximum response (duration),84 wks
